In EP0812190B1 (priority 1993, dated 1995):

Columns and labels:
[1] = system: guinea-pig ileum; experiment: tissue or blood; details: Cavia porcellus, read-out: Percent relaxation
[2] = water
[3] = system: Cerebellar Cultures; details: rat
[4] = in vitro; details: rat, cerebellar cell cultures

C#CCN[C@@H]1CCc2ccccc21 [[R](+)PAI, R(+)-N-propargyl-1-aminoindan]
inhibition at 30 µM [1]: 31%

tartarate
Solubility [2]: 33 mg/mL

C#CCN[C@H]1CCc2ccccc21 [[S](-)PAI, S-(-)-N-propargyl-1-aminoindan]
inhibition at 4 µM [1]: 15%
inhibition at 10 µM [1]: 30%

C#CCN[C@@H]1CCc2ccccc21.CS(=O)(=O)O [[R](+)PAI Mesylate, R-(+)-N-propargyl-1-aminoindan mesylate]
Toxicity TD25 [3]: (Toxicity TD25 = 30 µM; TD50 = 85 µM; TD100 = 320 µM)
Toxicity TD100 [3]: (Toxicity TD25 = 30 µM; TD50 = 85 µM; TD100 = 320 µM)
CC50 [4]: 85 µM
